Antibody variant affinities, Ab-14 heavy chain, assay B

Source: Li et al. 2023 (doi:10.1038/s41467-023-39022-2), MIT Lincoln Laboratory and A-Alpha Bio; data file from the FLAb repository.

All variants were tested on one target, the spike HR2 peptide PDVDLGDISGINAS (SARS-CoV-2).

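Phage display of a naive human antibody library on the peptide gave the parent. The variants were designed computationally from a first round of random CDR variants and then made and measured. Group labels follow the data file (Ctrl: baseline library sampled from a position-specific scoring matrix, with some repeated check sequences; GPLM: also part of the Gaussian process libraries; Gen: genetic algorithm; a sequence that several methods proposed may carry one label only). Affinity was read by AlphaSeq, a pooled yeast mating assay with surface-displayed partners. Binding brings cells together so that they mate, and sequencing counts the barcode pairs among the diploids. Scores were corrected for input abundance and mapped to Kd with protein pairs of known affinity run in the same pool. There are six technical replicates.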

Parent scFv Ab-14: VH joined to VL by the linker GGGGSGGGGSGGGGS. Changes lie in the heavy chain CDRs alone.
VH: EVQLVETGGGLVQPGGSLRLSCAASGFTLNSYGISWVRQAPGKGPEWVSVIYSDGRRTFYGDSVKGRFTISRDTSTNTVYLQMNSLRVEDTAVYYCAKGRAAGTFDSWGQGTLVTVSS
VL: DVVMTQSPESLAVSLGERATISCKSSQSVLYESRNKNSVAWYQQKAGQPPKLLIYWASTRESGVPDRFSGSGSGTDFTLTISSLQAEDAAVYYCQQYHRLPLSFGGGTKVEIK

Variants are written as CDR1, CDR2 and CDR3 of the heavy chain (limits as in the source). Parent: GFTLNSYGIS, VIYSDGRRTFYGDSVK, GRAAGTFDS. The read-out is the apparent dissociation constant on a log10 scale (nM): the lower, the stronger. "nd" marks a missing value. The strain was present, yet no cells mated with the target were sequenced in that replicate, which points to weak or no binding.

The variant GFTLNMYGIS | VIYADGLRTFYGDSVK | GLAAGTFDS [Ctrl] showed nd, 2.05, 0.72, 2.91, 2.09, 1.10 (controls 0 of 18).
The variant GFQLNSYGIS | VIYSDGRRTFYGDSVE | GQAADTFDS [Ctrl] showed nd, nd, nd, nd, nd, nd (controls 0 of 18).
The variant GFTMNSYGIS | VIYSDGRRTFYDDSVK | IRAYGTFDS [Ctrl] showed nd, nd, nd, nd, nd, nd (controls 0 of 18).
The variant GFTLNSYGIS | VIYSDGRRTFYGDAVK | GRADGTFDS [Ctrl] showed nd, nd, nd, nd, nd, nd (controls 0 of 18).
The variant GFNLNEHGIS | VIYSDGRRTFYADSVK | GRAAGTFVS [Ctrl] showed nd, nd, nd, nd, nd, nd (controls 0 of 18).
The variant GFSLNSYGIS | VIYSDGRRTFYGDSVV | GREAGTFDS [Ctrl] showed -0.47, 0.38, 0.69, -0.61, 0.08, 1.59 (controls 0 of 18).
The variant IFTLDSYGIS | VIYSDGRRTFYGDSVK | GRLAGTFDS [Ctrl] showed nd, nd, 1.56, nd, 1.15, nd (controls 0 of 18).
The variant GETVNSYGIS | VIYSDGRRTFYGDSVK | GRQAGTFDS [Ctrl] showed nd, nd, nd, nd, nd, nd (controls 0 of 18).
The variant GFQLNSYGIS | VIYSDGRRTFYNDSVK | TRAAGTFES [Ctrl] showed nd, nd, nd, nd, nd, nd (controls 0 of 18).
The variant GFTLNSYGIS | VIYSDGRRTAYGDSVK | GRATGTKDS [Ctrl] showed nd, nd, nd, nd, nd, nd (controls 0 of 18).
The variant GFTLNSYGIS | VIYSDGIRTFYGDSVK | GRAAGTFDS [Ctrl] showed nd, nd, 1.72, nd, 1.82, nd (controls 0 of 18).
The variant GFTLNTYGIS | VIYSDGRRTFYIDSVK | GRPAGSFDS [Ctrl] showed nd, nd, nd, nd, nd, nd (controls 0 of 18).
The variant GFTLNSYGIS | VIYSDGRRTFYHDSVK | GIAAGTFES [Ctrl] showed nd, nd, nd, nd, nd, nd (controls 0 of 18).
The variant GFKLNSYGIS | VIYSDGRRTFYADSVK | GRAAGTFDS [Ctrl] showed 2.24, 3.88, 1.75, 3.48, 1.54, 1.88 (controls 0 of 18).
The variant GFTLGSYGIS | VIYSDGRRTFYGDSVK | GRHAGTFDS [Ctrl] showed nd, nd, nd, 2.97, nd, nd (controls 0 of 18).
The variant GFTLNSYGIS | VIYSDGKRTFYGDSVK | GRNAGTFCS [Ctrl] showed nd, nd, nd, nd, nd, nd (controls 0 of 18).
The variant GFTLNEYGIS | VIYSDGRRTFYSDSVK | GRAAGTFLS [Ctrl] showed 3.43, 0.62, nd, 0.98, nd, 3.85 (controls 0 of 18).
The variant GFTLNSYGIS | VIYSDGRRTFYGDSVK | GWNAGTFDS [Ctrl] showed nd, nd, 2.56, nd, nd, 2.52 (controls 0 of 18).
The variant GFELNSYGIS | VIYADGRRTQYGDSVK | GRHPGTFDS [Ctrl] showed -0.34, 1.45, nd, 0.75, 0.72, 0.75 (controls 0 of 18).
The variant GFTLNEYGIS | VIYSDGRRTFYADSVK | GRVAGTFDS [Ctrl+GPLM_Gen] showed -0.65, -0.99, -0.49, -1.13, -0.92, -0.22; 0.20, -0.82, -0.66, -1.01, -0.55, -0.33 (controls 0 of 36).
The variant GFHLNSYGIS | VIYADGRRTFYGDSVK | GRAAGTFDK [Ctrl] showed 1.00, 1.83, 0.91, 1.00, 1.18, 1.62 (controls 1 of 18).
The variant KFTLNSYGIS | VIYSDGRRTGYGDSVK | GVAAGIFDS [Ctrl] showed nd, nd, nd, nd, nd, nd (controls 0 of 18).
The variant GFSVNSYGIS | VIYSDGRRTFYTDSVK | THAAGTFDS [Ctrl] showed nd, nd, nd, nd, nd, nd (controls 0 of 18).
The variant GFTLNSYGIS | VIYSDGRRCFYGDSVK | GDAAGTFDS [Ctrl] showed 1.13, 1.56, nd, nd, nd, nd (controls 0 of 18).
The variant GVQLNDYGIS | VIYSDGERTFYGDSVK | GRGAGTFDS [Ctrl] showed nd, nd, nd, nd, nd, nd (controls 0 of 18).
The variant GFPLNSYGIS | VIYSDGRRTFYGDSVK | GRAAGTFLS [Ctrl] showed 0.45, 0.37, 0.32, 0.20, 0.24, 0.25 (controls 0 of 18).
The variant GFTLNSYGIS | VIYSDGRRTFYGDDVK | GRLAGTFDS [Ctrl] showed 1.97, 2.23, 1.78, 2.30, 1.50, 1.57 (controls 0 of 18).
The variant GFTLNSYGIS | VIYSDGRRTFYSDSVK | GRAAGTFNS [Ctrl] showed nd, nd, nd, nd, nd, nd (controls 0 of 18).
The variant GFTLNSYSIS | VIYSDGRRTFYGDKVK | GRAAGTFDS [Ctrl] showed nd, nd, nd, nd, nd, nd; nd, nd, nd, nd, nd, nd (controls 0 of 36).
The variant GFTLNSYGIS | VIYSDGYRVFYGDEVK | GRAAGNFDS [Ctrl] showed nd, nd, nd, nd, nd, nd (controls 0 of 18).

From the list, the first 3 with no signal in any replicate:

CDR-H1,CDR-H2,CDR-H3,group,"log10 Kd, replicates",control signals
GFQLNSYGIS,VIYSDGRRTFYGDSVE,GQAADTFDS,Ctrl,"nd, nd, nd, nd, nd, nd",0/18
GFTMNSYGIS,VIYSDGRRTFYDDSVK,IRAYGTFDS,Ctrl,"nd, nd, nd, nd, nd, nd",0/18
GFTLNSYGIS,VIYSDGRRTFYGDAVK,GRADGTFDS,Ctrl,"nd, nd, nd, nd, nd, nd",0/18

Where one sequence has several entries in the source, the replicates are listed entry by entry, parted by semicolons. Empty control strains, which show no peptide, gave a signal in 1% of pairings with all heavy chain designs; the median was 2.08 and 95% of these signals were weaker than 0.84. No background was subtracted. The control count says in how many pairings with the empty strains this scFv gave a signal. The range of this assay differs from that of the first round, and the authors advise against merging the two. Of ten entries with the parent sequence, four were seen in most replicates (averages 0.34 to 2.37), three in one and three in none, so single entries are noisy. The authors' rule: three or more of the six replicates give a measured affinity, fewer mean a poor binder.